Patent publication EP4840863A1, “FLUORINE-CONTAINING PARTHENOLIDE DERIVATIVE, PREPARATION METHOD THEREFOR AND USE THEREOF” (dated 2026)

Tests used:
Conditions in all cases: 72 h, Table 1-1
H520 = test: Anticancer activity test (CCK-8), H520 cells
Protocol: (§1) Cells in logarithmic growth phase were digested, centrifuged, and counted; the cell suspension was adjusted to a concentration of 1500-3500 cells/well, and 95 µL was seeded into each well of a 96-well plate.
(§2) After continued overnight culture, drugs at different concentrations were added to the plate, with six replicate wells for each concentration. 10 µL of the drug was added to each well, followed by incubation for 72 h. Then, 10 µL of CCK-8 solution was added to each well (care should be taken to avoid generating bubbles in the wells, as they can affect the OD reading). After incubation in the incubator for 1-4 h, the OD value at 450 nm was measured using a microplate reader. The experiment to assess the effect of each drug on each cell line at different time points was repeated three times.
(§3) Data were processed using EXCEL software to calculate the inhibition rate at different concentrations, and SPSS was used to fit the IC50 value. EXCEL was used to calculate the mean and standard deviation of the three IC50 values. Inhibition rate % = {1 - (OD value of drug well - OD value of blank well) / (OD value of control well - OD value of blank well) } * 100%. Table 1-1 Activity of Compounds in Inhibiting Cancer Cells

HT-29 = test: Anticancer activity test (CCK-8), HT-29 cells
Protocol: as §1, §2, §3

Huh-7 = test: Anticancer activity test (CCK-8), Huh-7 cells
Protocol: as §1, §2, §3

U-118 = test: Anticancer activity test (CCK-8), U-118 cells
Protocol: as §1, §2, §3

PANC-1 Cells = test: Anticancer activity test (CCK-8), PANC-1 cells
Protocol: as §1, §2, §3

| IC50 (H520) | IC50 (HT-29) | IC50 (Huh-7) | IC50 (U-118) | IC50 (PANC-1 Cells) | SMILES |
| --- | --- | --- | --- | --- | --- |
| 3.28 µM | 5 µM | 3.93 µM | 4.3 µM | 6.35 µM | CN(C)CC1C(=O)OC2C1CCC(CC(F)(F)F)=CCCC1(C)OC21 (stereo not shown) [Compound 2] |
| 2.12 µM | 2.93 µM | 2.9 µM | 3.15 µM | 2.23 µM | C=C1C(=O)OC2C1CCC(CSC(F)(F)F)=CCCC1(C)OC21 (stereo not shown) |
| 4.49 µM | 6 µM | 5.46 µM | 5.03 µM | 8.8 µM | CN(C)CC1C(=O)OC2C1CCC(CC(F)(F)F)=CCCC1(C)OC21 (stereo not shown) [Compound 3] |

The next lines start with the compound.

| SMILES | IC50 (H520) | IC50 (HT-29) | IC50 (Huh-7) | IC50 (U-118) | IC50 (PANC-1 Cells) |
| --- | --- | --- | --- | --- | --- |
| C=C1C(=O)O[C@@H]2[C@H]3O[C@]3(C)CC/C=C(\C)CC[C@@H]12 | 3.79 µM | 5.16 µM | 5.58 µM | 3.84 µM | 6.98 µM |
| C=C1C(=O)OC2C1CCC(CSC#N)=CCCC1(C)OC21 (stereo not shown) | 6.95 µM | 4.87 µM | 5.61 µM | 3.29 µM | 4.04 µM |
